Measurements published in patent US20060079453A1, “Hla binding peptides and their uses” (priority 2002, published 2006).

By UniProt entry, the sequences of proteins in these tests, tags left out. Where a name states a change or a piece, a line headed by the entry shows the natural chain unless it says otherwise. Residues count along the entry.
UniProt Q30154, 30-266: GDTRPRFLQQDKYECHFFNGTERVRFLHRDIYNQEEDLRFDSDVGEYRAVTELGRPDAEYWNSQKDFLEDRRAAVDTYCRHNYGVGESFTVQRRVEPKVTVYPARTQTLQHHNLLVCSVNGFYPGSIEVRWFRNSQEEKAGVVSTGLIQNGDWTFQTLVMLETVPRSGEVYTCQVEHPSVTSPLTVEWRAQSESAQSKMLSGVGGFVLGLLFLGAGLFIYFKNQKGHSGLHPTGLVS
UniProt P01889, 25-362: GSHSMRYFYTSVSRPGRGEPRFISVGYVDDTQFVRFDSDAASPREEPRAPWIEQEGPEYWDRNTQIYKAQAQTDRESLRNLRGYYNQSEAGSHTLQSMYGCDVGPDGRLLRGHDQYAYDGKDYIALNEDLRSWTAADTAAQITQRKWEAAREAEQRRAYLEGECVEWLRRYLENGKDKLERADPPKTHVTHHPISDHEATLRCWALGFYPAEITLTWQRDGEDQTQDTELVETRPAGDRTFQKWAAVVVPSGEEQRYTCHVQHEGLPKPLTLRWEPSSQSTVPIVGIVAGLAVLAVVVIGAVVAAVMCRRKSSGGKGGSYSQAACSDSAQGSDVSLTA
UniProt P01897, 25-362: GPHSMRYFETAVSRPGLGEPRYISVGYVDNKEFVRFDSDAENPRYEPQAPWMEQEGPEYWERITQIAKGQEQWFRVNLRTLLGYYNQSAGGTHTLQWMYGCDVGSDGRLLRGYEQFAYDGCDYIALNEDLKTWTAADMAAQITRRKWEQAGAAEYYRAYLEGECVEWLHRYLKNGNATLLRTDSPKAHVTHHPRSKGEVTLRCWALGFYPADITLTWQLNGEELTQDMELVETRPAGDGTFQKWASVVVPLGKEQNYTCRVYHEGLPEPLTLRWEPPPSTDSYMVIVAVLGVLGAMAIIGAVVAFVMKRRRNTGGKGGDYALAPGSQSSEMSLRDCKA

What was measured:
[1] = molecular target: HLA-DR DRB1*0101 (DR1) (Homo sapiens, UniProt P01903+P01911, A100R/D57E/F55L/F60I/F76Y/I96L/L162R/M171V/P40L/Q125E/R42F/V115G/Y59C); experiment: biochemical; type: binding; details: DRB1 *0101
[2] = molecular target: HLA-DR DRB1*0401 (DR4) (Homo sapiens, UniProt P01903+P01911, A100K/A169T/F76Y/I96L/K127E/L162R/M171V/N62H/P40V/Q125Y/R42H/S133A/S149N/S66Y/V115G/V209L/W38E); experiment: biochemical; type: binding; details: DRB1 *0401
[3] = molecular target: HLA-DR DRB1*0802 (DR8) (Homo sapiens, UniProt P01903+P01911, A100R/A103L/A169T/F76Y/H45Y/I96F/K41T/L162R/M171V/P40S/Q125H/Q178H/Q39Y/Q99D/R218S/R42G/S66Y/V115G/W38E); experiment: biochemical; type: binding
[4] = molecular target: HLA-DR DRB1*0901 (DR9) (Homo sapiens, UniProt P01903+P01911, A100R/A103E/D57H/D86V/F55Y/F60I/F76Y/I96F/K127E/L162R/M171V/P40D/Q125H/Q99R/R33Q/R42F/S133A/S66N/T210M/V115G/W38K/Y107V/Y59G/Y89S); experiment: biochemical; type: binding; details: DRB1 *0901
[5] = molecular target: HLA-DR DRB1*1101 (DR11) (Homo sapiens, UniProt P01903+P01911, A100R/A169T/A87E/I96F/K41T/L162R/M171V/P40S/Q125H/Q178H/Q39Y/Q99D/R42S/S66Y/T262R/V115G/W38E); experiment: biochemical; type: binding; details: DRB1 *1101
[6] = molecular target: HLA-DR DRB5*0101 (DR51) (Homo sapiens, UniProt P01903+Q30154); experiment: biochemical; type: binding; details: DRB5 *0101
[7] = molecular target: HLA-DQ DQA1*0301/B*0301 (DQ7) (Homo sapiens, UniProt P01909+P01920, A209T/C70Q/DUP78-78/E183D/F237L/G63E/I129T/K197E/L178F/L74F/L98V/Q57E/Q76R/S185I/S97I/T49S/V73L); experiment: biochemical; type: binding
[8] = molecular target: HLA-DQ DQA1*0501/B*0201 (DQ2) (Homo sapiens, UniProt P01909+P01920, A45G/A70V/D89A/E106A/E77G/E98D/H199R/L107V/N214S/P84L/P87L/T103K/T109R/T172A/T60S/V78E/V99I/Y58L/Y62S/Y69I/Y79F); experiment: biochemical
[9] = molecular target: HLA-DQ DQA1*0301/B*0302 (DQ8) (Homo sapiens, UniProt P01909+P01920, A209T/A45G/C70Q/D89A/DUP78-78/E183D/E77G/F237L/G63E/H199R/I129T/K197E/L178F/L74F/L98V/Q57E/Q76R/S185I/S97I/T217I/T49S/V73L/Y58L); experiment: biochemical
[10] = molecular target: HLA-B*0702 (Homo sapiens, UniProt P01889); experiment: biochemical; details: B*0702 binding affinity (IC50)
[11] = molecular target: HLA-B*5101 (Homo sapiens, UniProt P01889, A329T/A93T/A95T/C349S/D138N/D201E/D98Y/E187L/E204Q/E69T/G107R/I218V/K202T/L105A/L119W/N104I/Q94N/R106L/R155S/R180L/S101N/S121T/S35A/S48A/V306I/V36M/Y195H/Y91F); experiment: biochemical; details: B*5101 binding affinity (IC50)
[12] = molecular target: HLA-B*5301 (Homo sapiens, UniProt P01889, A329T/A93T/A95T/C349S/D201E/D98Y/E176V/E187L/E204Q/E69T/G107R/I218V/K202T/L105A/L119I/N104I/Q94N/R106L/R155S/R180L/S101N/S121R/S35A/S48A/T118I/V127L/V306I/V36M/Y140S/Y91F); experiment: biochemical; details: B*5301 binding affinity (IC50)
[13] = molecular target: HLA-B*5401 (Homo sapiens, UniProt P01889, A329T/C349S/D138N/D201E/E176V/E187T/E204Q/E69G/I76V/K202T/L119W/R155S/R180L/S121T/S35A/S48A/V127L/V306I/V36M/Y140L); experiment: biochemical; details: B*5401 binding affinity (IC50)
[14] = molecular target: H-2Ld (Mus musculus, UniProt P01897); type: binding, murine
[15] = test system: HLA-DR DRB5*0201; type: binding, human; details: read-out: DRB5 *0201

Q: How did the IC50 [1] turn out when `CC[C@H](C)[C@H](NC(=O)[C@H](Cc1ccc(O)cc1)NC(=O)[C@H](C)NC(=O)[C@H](CCC(=O)O)NC(=O)[C@H](CCC(=O)O)NC(=O)[C@H](Cc1ccccc1)NC(=O)[C@H](CCC(=O)O)NC(=O)[C@H](CCC(N)=O)NC(=O)[C@H](Cc1ccc(O)cc1)NC(=O)[C@@H](NC(=O)[C@H](CC(=O)O)NC(=O)[C@H](Cc1ccccc1)NC(=O)[C@H](C)NC(=O)[C@H](CC(C)C)NC(=O)[C@@H](N)CCC(N)=O)[C@@H](C)O)C(=O)O` was run?
A: Its IC50 is over 20.5 µM.

Q: What about the IC50 [2] of the same compound?
A: Its IC50 is over 10.7 µM.

Q: And the IC50 [3]?
A: The IC50 was over 33.3 µM.

Q: And the IC50 [4]?
A: Its IC50 is over 59.5 µM.

Q: And the IC50 [5]?
A: Its IC50 is over 15.4 µM.

Q: And the IC50 [6]?
A: The IC50 was over 38.6 µM.

Q: What about the IC50 [7] of the same compound?
A: The IC50 was over 89.3 µM.

Q: What about the IC50 [8] of the same compound?
A: Its IC50 is 0.035 µM.

Q: And the IC50 [9]?
A: Its IC50 is 0.673 µM.

Q: For `CC(C)C[C@H](NC(=O)[C@H](Cc1ccccc1)NC(=O)[C@H](C)NC(=O)[C@H](CCCCN)NC(=O)[C@H](Cc1ccc(O)cc1)NC(=O)[C@@H](NC(=O)[C@@H]1CCCN1C(=O)[C@@H](N)CO)[C@@H](C)O)C(=O)O`, which IC50 [10] is on record?
A: Its IC50 is 0.109 µM.

Q: What about the IC50 [11] of the same compound?
A: Its IC50 is 4.67 µM.

Q: What about the IC50 [12] of the same compound?
A: Its IC50 is 54.9 µM.

Q: What about the IC50 [13] of the same compound?
A: The IC50 was 58.7 µM.

Q: TPQSLDYWWTSL was tested. Which IC50 [14] did it give?
A: Its IC50 is 0.0016 µM.

Q: How did the IC50 [14] turn out when TPQSRDSWWTSL was run?
A: The IC50 was 0.021 µM.

Q: How did the IC50 [15] turn out when VDAQGTLSKIFKLGGRDSRS was run?
A: The IC50 was 1.15 µM.
